Experimental data from patent publication US20240016902A1.

Legend:
HSPA8 = HSPA8 (UniProt P11142); assay: Flag-IP from HeLa cell lysate, mass spectrometry of eluate
TUBA1A = TUBA1A (UniProt Q71U36); assay: as above
SPTBN1 = SPTBN1 (UniProt Q01082); assay: as above
ACTG1 [1] = target: ACTG1 (UniProt P63261); assay: as above
ACT7 = ACT7 (UniProt P53492); assay: Flag-IP from HepG2 cell lysate, mass spectrometry of eluate
ACTC1 = ACTC1 (UniProt P68032); assay: as above
WDR77 = WDR77 (UniProt Q9BQA1); assay: as above
ACTG1 [2] = target: ACTG1 (UniProt P63261); assay: as above
DBN1 = DBN1 (UniProt Q16643); assay: as above
ACTB [3] = target: ACTB (UniProt P60709); assay: Flag-IP from HeLa cell lysate, mass spectrometry of eluate
TUBB4B = TUBB4B (UniProt P68371); assay: Flag-IP from HepG2 cell lysate, mass spectrometry of eluate
ACTB [4] = target: ACTB (UniProt P60709); assay: as above

Coverage (%) (HSPA8)	Length of peptide (HSPA8)	Length of peptide (TUBA1A)	Length of peptide (SPTBN1)	Coverage (%) (ACTG1 [1])	Length of peptide (ACTG1 [1])	Coverage (%) (ACT7)	Length of peptide (ACT7)	Coverage (%) (ACTC1)	Length of peptide (ACTC1)	Length of peptide (WDR77)	Coverage (%) (ACTG1 [2])	Length of peptide (ACTG1 [2])	Length of peptide (DBN1)	Coverage (%) (ACTB [3])	Length of peptide (ACTB [3])	Length of peptide (TUBB4B)	Coverage (%) (ACTB [4])	Length of peptide (ACTB [4])	Substance
35	15	11	22	50	13	15	4	35	11	15	73	22	15						Flag-AtRDR1 (Arabidopsis thaliana RNA-dependent RNA polymerase 1 with Flag tag) (from UniProt Q9LQV2 1-1107) (enzyme)
											76	25		40	10	25	76	25	Flag-OsRDR1 (rice, Oryza sativa, RNA-dependent RNA polymerase 1 with Flag tag) (from UniProt Q0DXS3 1-740) (enzyme)
